These results are taken from patent publication US20250127937A1, “FAP INHIBITOR” (UNIVERSITÄT HEIDELBERG, priority 2018, published 2025).

Sequences of proteins named here, by UniProt entry; tags and fusion partners are left off.
UniProt Q12884, whole entry: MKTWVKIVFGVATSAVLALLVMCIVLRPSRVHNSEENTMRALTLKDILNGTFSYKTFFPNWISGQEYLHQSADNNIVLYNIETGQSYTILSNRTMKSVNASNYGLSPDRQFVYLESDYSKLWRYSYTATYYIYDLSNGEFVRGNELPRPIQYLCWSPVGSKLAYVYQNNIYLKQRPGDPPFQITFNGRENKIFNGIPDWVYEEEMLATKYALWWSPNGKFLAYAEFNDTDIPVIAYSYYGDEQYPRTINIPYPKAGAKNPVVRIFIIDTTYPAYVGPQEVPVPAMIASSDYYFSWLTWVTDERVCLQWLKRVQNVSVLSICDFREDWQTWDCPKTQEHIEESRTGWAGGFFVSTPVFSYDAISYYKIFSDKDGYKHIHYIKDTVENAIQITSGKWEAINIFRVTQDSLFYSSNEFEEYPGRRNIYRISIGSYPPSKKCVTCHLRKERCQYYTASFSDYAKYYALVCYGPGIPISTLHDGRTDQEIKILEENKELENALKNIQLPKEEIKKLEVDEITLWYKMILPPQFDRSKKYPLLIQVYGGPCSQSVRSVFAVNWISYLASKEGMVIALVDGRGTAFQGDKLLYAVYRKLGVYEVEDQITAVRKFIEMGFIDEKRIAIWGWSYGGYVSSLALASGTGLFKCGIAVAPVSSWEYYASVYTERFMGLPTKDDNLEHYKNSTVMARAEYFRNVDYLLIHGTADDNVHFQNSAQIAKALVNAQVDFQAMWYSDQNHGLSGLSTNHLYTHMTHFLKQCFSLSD

Experiment [1] addresses human FAP-α (Homo sapiens (Human), UniProt Q12884). The experiment in a line: Competitive binding of radiolabeled compound to HT-1080-FAP cells against unlabeled compound. To be noted: F-18-FAPI derivatives; table title says EC50, head says IC50.
Experiment [2] deals with HT-1080-FAP tumor xenografts. The experiment in a line: Small-animal imaging (PET, scintigraphy) in HT-1080-FAP tumor bearing mice. The note with it: F-18 labeled (nicotinamide or AlF-18 NOTA), up to 140 min after i.v.

For the molecule `C[N+](C)(C)c1ccc(C(=O)N2CCN(CCCOc3ccc4nccc(C(=O)NCC(=O)N5CC(F)(F)C[C@H]5C#N)c4c3)CC2)cn1`, the IC50 in experiment [1] came to 5.4 nM. Also, the PET imaging findings entry in experiment [2] is on record as “unfavorable accumulation in the liver”.
On the same counts, the results for `CN(CCCN1CCN(C(=O)c2ccc([N+](C)(C)C)nc2)CC1)c1ccc2nccc(C(=O)NCC(=O)N3CC(F)(F)C[C@H]3C#N)c2c1` are 2.4 nM and “unfavorable accumulation in the liver”.

In general, IC50 refers to the concentration that gives 50% inhibition.
